Laboratory results as given in ChEMBL document CHEMBL2321856, “Optimizing small molecule inhibitors of calcium-dependent protein kinase 1 to prevent infection by Toxoplasma gondii” (J Med Chem, 2013).

Assay: Inhibition of Toxoplasma gondii RH full length CDPK1 expressed in Escherichia coli BL21(DE3) using syntide-2 peptide as substrate after 20 mins by ELISA
Type: cell-free
Procedure, shortened: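 His-tagged recombinant CDPK1 purified by nickel affinity. Syntide-2-coated plates blocked with 3% BSA. Reaction run 20 min at 30°C in HEPES pH 7.5 with 10 mM MgCl₂, 2.5 mM CaCl₂, 0.1 mM EGTA and 1 mM DTT. Each enzyme used at its half-maximal-activity concentration with ATP at its own Km. Phosphopeptide detected by mAb MS-6E6/HRP-TMB at A450. Triplicates; IC50 from variable-slope sigmoidal fit.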

## CC(C)(C)n1nc(-c2cccc3ccccc23)c2c(N)ncnc21
  IC50: 2.13 nM
